Assays:
in vitro [1] = settings: mouse, liver microsomes
in vitro [2] = settings: human, liver microsomes

microsomal CLint at 1 µM (in vitro [1]) [µL/min/mg] | microsomal CLint at 1 µM (in vitro [2]) [µL/min/mg] | SMILES
84.3 | 32.4 | CCOc1ccccc1N1CCN(CCCc2c[nH]c3ccc(F)cc23)CC1
152 | 37.7 | COc1ccccc1N1CCN(CCCc2c[nH]c3ccc(F)cc23)CC1
79.7 | 26 | CSc1ccccc1N1CCN(CCCc2c[nH]c3ccc(F)cc23)CC1
